Test results: PMC6471342, “Synthesis of Thymidine Phosphorylase Inhibitor Based on Quinoxaline Derivatives and Their Molecular Docking Study” (Molecules, 2019)

The chains behind the UniProt entries cited, without tags or fusion partners. Where a name states a change or a piece, a line headed by the entry shows the natural chain unless it says otherwise.
UniProt P07650: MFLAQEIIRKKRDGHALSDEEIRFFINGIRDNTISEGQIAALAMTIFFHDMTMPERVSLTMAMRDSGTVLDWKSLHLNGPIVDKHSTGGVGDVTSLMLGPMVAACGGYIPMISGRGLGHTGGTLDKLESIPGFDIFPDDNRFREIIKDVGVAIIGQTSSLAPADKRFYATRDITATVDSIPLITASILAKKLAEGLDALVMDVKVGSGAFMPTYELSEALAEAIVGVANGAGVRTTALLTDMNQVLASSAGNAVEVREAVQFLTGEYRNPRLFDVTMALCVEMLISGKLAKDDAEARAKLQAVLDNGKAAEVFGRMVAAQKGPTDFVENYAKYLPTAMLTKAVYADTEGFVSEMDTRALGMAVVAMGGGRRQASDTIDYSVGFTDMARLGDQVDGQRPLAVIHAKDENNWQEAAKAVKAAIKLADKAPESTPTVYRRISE

Target: T1, thymidine phosphorylase/PD-ECGF (E. coli) (Escherichia coli, UniProt P07650)
T1 construct: purchased
Assay: Thymidine phosphorylase inhibition assay (absorbance at 290 nm)
Assay type: biochemical
Conditions: Table 1; triplicate; read-out: IC50 (µM ± SEM)
Procedure: Since human TP is not easy to obtain, we used commercially available recombinant E. coli TP. The primary sequence of TP is frequently preserved throughout evolution as mammalian TP is reported to share 39% sequence resemblance with the TP of E. coli. The mammalian enzyme also shared up to 70% resemblance with the active site residues, and three-dimensional structure of E. coli TP enzyme. The thymidine phosphorylase/PD-ECGF (E. coli) activity was determined by measuring the absorbance at 290 nm spectrophotometrically. The method was described in [50, 51]. In brief, the total reaction mixture of 200 µL contained 145 µL of potassium phosphate buffer (pH 7.4), 30 µL of enzyme (human and E. coli) at concentration 0.05 and 0.002 U, respectively, were incubated with 5 µL of test materials for 10 min at 25 °C in a microplate reader. After incubation, a pre-read at 290 nm was taken to deduce the absorbance of substrate particles. The substrate (20 µL, 1.5 mM), dissolved in potassium phosphate buffer, was immediately added to the plate and continuously read after 10, 20, and 30 min in a microplate reader (SpectraMax, Molecular Devices, CA, USA). […]
Reactions for above mentioned biological activities were carried out in triplicate. […] The percent inhibition for above mentioned biological activities was calculated by following formula:Percent Inhibition = 100 − (ODtest compound/ODcontrol) × 100(1)

O=c1[nH]c(=O)c2cc[nH]c2[nH]1 [7-Deazaxanthine, reference compound]
IC50: 38.7 ± 4.42 µM
